The values that follow come from article PMC10061512 (ACS Omega, 2023).

Amino acid sequences for entries named in this document (tags omitted).
UniProt P81908, whole entry: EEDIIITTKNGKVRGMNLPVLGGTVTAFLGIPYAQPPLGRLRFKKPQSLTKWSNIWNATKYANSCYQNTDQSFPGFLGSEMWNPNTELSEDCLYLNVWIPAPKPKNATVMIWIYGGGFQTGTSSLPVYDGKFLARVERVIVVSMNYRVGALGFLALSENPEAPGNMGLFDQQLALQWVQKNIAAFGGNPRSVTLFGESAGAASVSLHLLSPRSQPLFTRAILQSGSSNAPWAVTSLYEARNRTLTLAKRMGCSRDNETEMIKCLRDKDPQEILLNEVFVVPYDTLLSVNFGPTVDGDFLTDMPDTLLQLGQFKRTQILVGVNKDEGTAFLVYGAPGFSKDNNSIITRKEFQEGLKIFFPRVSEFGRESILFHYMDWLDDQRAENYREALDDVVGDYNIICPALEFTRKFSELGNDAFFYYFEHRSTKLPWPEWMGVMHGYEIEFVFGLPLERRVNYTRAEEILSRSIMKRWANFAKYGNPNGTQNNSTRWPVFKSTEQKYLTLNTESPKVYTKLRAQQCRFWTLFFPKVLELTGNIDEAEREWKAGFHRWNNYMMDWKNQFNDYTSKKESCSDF

The structures appear in SMILES notation.

In the test the target is eqBChE (Equus caballus, UniProt P81908). The experiment in a line: BChE inhibition and enzyme kinetics, Ellman assay. The class given is biochemical, equine. A general note: Ellman's reagent forms a yellow product with free thiols.

As a reminder, the IC50 is the midpoint of a concentration-inhibition curve. Low readings indicate greater potency in that assay, high ones weaker potency in that assay.

In turn, `O=c1ccc2ccc(O)cc2o1` [compound 17, 7-hydroxycoumarin] yielded an IC50 of 180 ± 4.58 µM.
